Target: hCA II (Homo sapiens, UniProt P00918)
Assay: stopped-flow CO2 hydrase assay, hCA II
Format: biochemical

SMILES | Ki (pH 7.5) | Ki (CO2 hydrase stopped-flow assay, 20 mM Hepes pH 7.5, 20 mM NaClO4, mean from 3 assays)
CCN(CC)C(=S)S [Et2NCS2^–, N,N-diethyldithiocarbamate] | 3.1 mM | 
NS(=O)(=O)O [H2NSO3H, sulphamic acid] |  | 0.39 mM
O=NO [NO2^–, nitrite] | 63 mM | 
